Results: patent US20240248078A1, “Compositions For and Methods of Evaluating Gap Junction Formation and Function” (Duke University, priority 2021, published 2024)

Target: Cx36-FP (human)
Experiment: heterotypic FETCH flow cytometry, n=5

z (test statistic of the FETCH score against the negative distribution): 9.03
Substance: Cx26-FP
